Measurements reported in the supplement of paper PMC10307832.

Columns and labels:
Assay in all cases: relative viability (nuclei count vs DMSO), 5 days (fraction); higher = more cells survive
Bortezomib + Olaparib = compound: CC(C)C[C@H](NC(=O)[C@H](Cc1ccccc1)NC(=O)c1cnccn1)B(O)O [Bortezomib] + O=C(c1cc(Cc2n[nH]c(=O)c3ccccc23)ccc1F)N1CCN(C(=O)C2CC2)CC1 [Olaparib] (partner 8 µM); settings: first compound 0.002 µM
In short: (§1)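 Relative viability was taken as the ratio of nuclei in treated wells to nuclei in vehicle wells. Lung cancer cell lines in 1536-well plates received compounds by pin tool one day after seeding, either one drug alone or a fixed anchor-drug dose plus five library-drug doses (not always all listed) in √10 steps. Nuclei were counted on 4× images after 5 days of treatment, and values are medians of duplicate plates.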

Bortezomib + OSI-027 = compound: CC(C)C[C@H](NC(=O)[C@H](Cc1ccccc1)NC(=O)c1cnccn1)B(O)O [Bortezomib] + COc1cccc2cc(-c3nc([C@H]4CC[C@H](C(=O)O)CC4)n4ncnc(N)c34)[nH]c12 [OSI-027] (partner 0.5 µM); settings: first compound 0.0002 µM
In short: as §1

Bortezomib + AZD7762 = compound: CC(C)C[C@H](NC(=O)[C@H](Cc1ccccc1)NC(=O)c1cnccn1)B(O)O [Bortezomib] + NC(=O)Nc1cc(-c2cccc(F)c2)sc1C(=O)N[C@H]1CCCNC1 [AZD7762] (partner 0.2 µM); settings: first compound 0.000632 µM
In short: as §1

Bortezomib = compound: CC(C)C[C@H](NC(=O)[C@H](Cc1ccccc1)NC(=O)c1cnccn1)B(O)O [Bortezomib]; settings: 0.0002 µM
In short: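 Lung cancer cell lines in 1536-well plates were kept overnight at 37 °C, then pinned with five library-drug doses (not always all listed) spaced by √10 on vehicle-anchored plates. After 5 days without medium change, cells were fixed, permeabilised and Hoechst-stained in one step, imaged at 4×, and nuclei were counted with MetaXpress. Viability is treated-well nuclei divided by vehicle-well nuclei, taken as the median over plates. Plates passed only with control CV below 25% and at least one doubling.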

Bortezomib + Crizotinib = compound: CC(C)C[C@H](NC(=O)[C@H](Cc1ccccc1)NC(=O)c1cnccn1)B(O)O [Bortezomib] + C[C@@H](Oc1cc(-c2cnn(C3CCNCC3)c2)cnc1N)c1c(Cl)ccc(F)c1Cl [Crizotinib] (partner 1 µM); settings: first compound 0.0002 µM
In short: as §1

Bortezomib + Alpelisib = compound: CC(C)C[C@H](NC(=O)[C@H](Cc1ccccc1)NC(=O)c1cnccn1)B(O)O [Bortezomib] + Cc1nc(NC(=O)N2CCC[C@H]2C(N)=O)sc1-c1ccnc(C(C)(C)C(F)(F)F)c1 [Alpelisib] (partner 2 µM); settings: first compound 0.002 µM
In short: as §1

Bortezomib + Tozasertib = compound: CC(C)C[C@H](NC(=O)[C@H](Cc1ccccc1)NC(=O)c1cnccn1)B(O)O [Bortezomib] + Cc1cc(Nc2cc(N3CCN(C)CC3)nc(Sc3ccc(NC(=O)C4CC4)cc3)n2)n[nH]1 [Tozasertib] (partner 0.1 µM)
In short: as §1

Bortezomib + Linsitinib = compound: CC(C)C[C@H](NC(=O)[C@H](Cc1ccccc1)NC(=O)c1cnccn1)B(O)O [Bortezomib] + C[C@]1(O)C[C@@H](c2nc(-c3ccc4ccc(-c5ccccc5)nc4c3)c3c(N)nccn32)C1 [Linsitinib] (partner 1 µM); settings: first compound 0.000632 µM
In short: as §1

LXF-289
relative viability (Bortezomib + Olaparib): 1.01

PC-14
relative viability (Bortezomib + OSI-027): 0.919

H3255
relative viability (Bortezomib + AZD7762): 0.962

LU99A
relative viability (Bortezomib): 0.954

HOP-62
relative viability (Bortezomib + Crizotinib): 0.978

NCI-H2085
relative viability (Bortezomib + Alpelisib): 0.919

HCC-44
relative viability (Bortezomib + Tozasertib; first compound 0.000632 µM): 0.978

LCLC-103H
relative viability (Bortezomib + Tozasertib; first compound 0.0002 µM): 0.542

RERF-LC-KJ
relative viability (Bortezomib + Linsitinib): 0.978
